ChEMBL document CHEMBL3259678, “Oxathiazolones Selectively Inhibit the Human Immunoproteasome over the Constitutive Proteasome” (ACS Med Chem Lett, 2014)

Biological target: T1, Proteasome subunit beta type-8 (Homo sapiens) (UniProt P28062)
T1 sequence (whole entry): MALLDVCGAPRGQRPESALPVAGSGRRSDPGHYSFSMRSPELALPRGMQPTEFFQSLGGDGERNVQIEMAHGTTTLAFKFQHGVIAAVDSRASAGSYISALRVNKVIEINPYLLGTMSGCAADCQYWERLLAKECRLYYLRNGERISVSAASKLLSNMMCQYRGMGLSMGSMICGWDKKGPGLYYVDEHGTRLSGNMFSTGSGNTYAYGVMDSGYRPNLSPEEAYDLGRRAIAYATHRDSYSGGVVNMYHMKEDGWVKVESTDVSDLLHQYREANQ
Assay: Inhibition of immunoproteasome-20S subunit beta5i in human PBMC assessed as substrate hydrolysis using suc-LLVY-AMC as substrate by fluorescence analysis
Conditions: TDE = time-dependent effect
Outline: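 Purified human i-20S preincubated with inhibitor for 15 min before suc-LLVY-AMC was added; inhibitor ranged from 9.8 nM to 100 μM. AMC fluorescence release read. IC50 from the concentration–response; where β2i/β1i inhibition exceeded 80% at 100 μM, IC50 was also determined.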

O=c1oc(-c2ccc(-c3ccccc3)cc2)ns1
inhibition: tde
